Assays:
CD4+ TH cells [1] = experiment: Three-day proliferation assay ([3H]thymidine incorporation); type: cell-based, human; conditions: for CD4+ TH responsiveness to CD8+CD28− TS cell-treated APCs: APCs preincubated 18 h with TS cells, rIL-2 10 U/ml
Description: Before testing, responding T cells were depleted of natural killer cells with the use of goat anti-mouse IgG magnetic beads (Dynal, Lake Success, N.Y.) coupled with mAbs to CD16 and CD56 (Becton Dickinson, San Jose, Calif.). CD4^+ and CD8^+ T cells were obtained from natural killer and CD14^+-depleted cell suspensions by negative selection with the use of CD8^+ and CD4^+ magnetic beads, respectively (Dynal). CD8^+ T cell suspensions were then twice depleted of CD28^+ T cells with the use of goat anti-mouse IgG beads (Dynal) coupled with monoclonal anti-CD28 (Becton Dickinson). The purity of the CD4^+ and CD8^+ CD28^− T cell subsets was monitored by cytofluorographic analysis. All CD4^+ and CD8^+CD28^− T cell suspensions that were used in functional assays contained <2% CD16^+CD56^+ cells. CD4^+ T cells were >98% positive for the CD4 and CD45RO markers. The population of CD8^+CD28^− T cells contained >98% cells that were positive for CD8 and <2% CD28^hi cells.
Proliferation assays were done after two or three cycles of stimulation of human T cells with allogeneic CD2-depleted APCs or KG1 cells. Responding CD4^+ T cells (1×10^5 cells/well) were stimulated in triplicate with irradiated DCs (2.5×10^4 cells/well), CD14^+ monocytes (1×10^5) or KG1 cells (5×10^4) in the absence or presence of human CD8^+CD28^− T cells (1×10^5 cells/well). Cultures were set up in 96-well trays in a total volume of 0.2 ml. In some experiments, monoclonal anti-ILT3, a mixture of mAbs to ILT4 and HLA class I (W6/32, ATCC) or exogenous rIL-2 (10 U/ml) were added at the start of incubation. After 48 h of incubation, the cultures were pulsed with [^3H]thymidine and collected 18 h later. [^3H]thymidine incorporation was determined by scintillation spectrometry.
To determine the effect of CD8^+CD28^− TS cells on CD4^+ TH cell alloreactivity, 12 different TCLs were generated. […]

CD4+ TH cells [2] = conditions: previously shown (refs 12, 15); cited from earlier work

In the case of “rIL-2: Recombinant IL-2 (Boehringer Mannheim), 10 U/ml”, the “CD4+ TH responsiveness to CD8+CD28− TS cell-treated APCs” value (CD4+ TH cells [1]) is reported as “restored”, the “CD4+ TH responsiveness to CD8+CD28− TS cell-treated APCs” value (CD4+ TH cells [1]; listed as rIL2) is reported as “restores” and the “CD4+ TH cell proliferation in response to KG1.ILT3 or KG1.ILT4 cells” value (CD4+ TH cells [1]; ILT3- or ILT4-transduced KG1 cells as stimulators) is reported as “restored”. For the same substance, the “CD4+ TH cell proliferation in the presence of CD8+CD28− TS cells” value (CD4+ TH cells [2]) was “restored”.
